Assay results taken from patent US10130633B2, “Compounds” (BAYER PHARMA AKTIENGESELLSCHAFT, priority 2013, dated 2018).

Key:
[1] = tested on: HCT116 FOP control reporter cell line; assay: HCT116 FOPFlash control reporter assay (FOP control vector, non-functional TCF elements); assay type: cell-based; conditions: HCT116 FOP control reporter cells, 36 hours incubation, luciferase expression
Description: In a parallel approach, HCT116 cells were cotransfected with the FOP control vector and pcDNA3. The FOP vector is identical to the TOP construct, but it contains instead of functional TCF elements a randomized, non-functional sequence. For this transfection a stable transfected cell line was generated as well.

[2] = tested on: wildtype Wnt pathway; assay: HEK293 TOP reporter assay, wildtype Wnt pathway stimulated with Wnt-3a; assay type: cell-based, human; conditions: HEK293 TOP cells, EC50 concentration of recombinant Wnt-3a, 16 hours; read-out: HEK TOP OncoFlash IC50
Experimental: Measurement of luciferase expression was done as described for the constitutive active Wnt assay.
In order to discover and characterize small molecules which inhibit the wildtype Wnt pathway, a cellular reporter assay was employed. […] Stable transfectants were generated by selection with 300 μg/ml Hygromycin.

CC(C(=O)Nc1cc(C(=O)Nc2ccc(-c3cccc(F)c3)nc2)ccc1OC(F)(F)F)N1CC2CCC(C1)O2 (stereo not shown) [Example 248, N-[6-(3-fluorophenyl)pyridin-3-yl]-3-{[2-(8-oxa-3-azabicyclo[3.2.1]oct-3-yl)propanoyl]amino}-4-(trifluoromethoxy)benzamide]
IC50 [1]: ≥ 50000 nM

CC(C(=O)Nc1cc(C(=O)Nc2ccc(-c3ccccc3F)nc2)ccc1OC(F)(F)F)N1CCN(C)CC1 (stereo not shown) [Example 64, N-[6-(2-fluorophenyl)pyridin-3-yl]-3-{[2-(4-methylpiperazin-1-yl)propanoyl]amino}-4-(trifluoromethoxy)benzamide]
IC50 ([1]; Homo sapiens, HCT-116, 36 h): ≥ 50000 nM

COc1ccc(C(=O)Nc2ccc(-c3ccccc3F)nc2)cc1NC(=O)CN1CC2CCC(C1)O2 [Example 2, N-[6-(2-fluorophenyl)pyridin-3-yl]-4-methoxy-3-[(8-oxa-3-azabicyclo[3.2.1]oct-3-ylacetyl)amino]benzamide]
IC50 ([1]; Homo sapiens, HCT-116, 36 h): ≥ 50000 nM
IC50 [2]: 120 nM

O=C(CN1CCOCC1)Nc1cc(C(=O)Nc2ncc(-c3ccccc3)s2)ccc1OC(F)(F)F [Example 14, 3-[(morpholin-4-ylacetyl)amino]-N-(5-phenyl-1,3-thiazol-2-yl)-4-(trifluoromethoxy)benzamide]
IC50 ([1]; Homo sapiens, HCT-116, 36 h): ≥ 50000 nM
IC50 [2]: 550 nM

O=C(Nc1ccc(-c2ccccc2)cn1)c1ccc(OC(F)(F)F)c(NC(=O)C2(N3CCOCC3)CC2)c1 [Example 95, 3-({[1-(morpholin-4-yl)cyclopropyl]carbonyl}amino)-N-(5-phenylpyridin-2-yl)-4-(trifluoromethoxy)benzamide]
IC50 ([1]; Homo sapiens, HCT-116, 36 h): ≥ 50000 nM
IC50 [2]: 50 nM

O=C(CN1CCOCC1)Nc1cc(NC(=O)c2ccc(-c3cc(F)cc(F)c3)nc2)ccc1OC(F)(F)F [Example 27, 6-(3,5-difluorophenyl)-N-{3-[(morpholin-4-ylacetyl)amino]-4-(trifluoromethoxy)phenyl}nicotinamide]
IC50 ([1]; Homo sapiens, HCT-116, 36 h): ≥ 50000 nM
IC50 [2]: 1000 nM

COc1ccc(NC(=O)c2ncc(-c3ccccc3)o2)cc1NC(=O)CN1CCOCC1 [Example 20, N-{4-methoxy-3-[(morpholin-4-ylacetyl)amino]phenyl}-5-phenyl-1,3-oxazole-2-carboxamide]
IC50 ([1]; Homo sapiens, HCT-116, 36 h): ≥ 50000 nM
IC50 [2]: 2200 nM

O=C(CN1CCN(C2CC2)CC1)Nc1cc(C(=O)Nc2nnc(-c3ccccc3)s2)ccc1OC(F)F [Example 41, 3-{[(4-cyclopropylpiperazin-1-yl)acetyl]amino}-4-(difluoromethoxy)-N-(5-phenyl-1,3,4-thiadiazol-2-yl)benzamide]
IC50 ([1]; Homo sapiens, HCT-116, 36 h): ≥ 50000 nM
IC50 [2]: 720 nM

CN1CCN(CC(=O)Nc2cc(C(=O)Nc3nnc(-c4cccc(Cl)c4)s3)ccc2OC(F)(F)F)CC1 [Example 151, N-[5-(3-chlorophenyl)-1,3,4-thiadiazol-2-yl]-3-{[(4-methylpiperazin-1-yl)acetyl]amino}-4-(trifluoromethoxy)benzamide]
IC50 ([1]; Homo sapiens, HCT-116, 36 h): ≥ 50000 nM
IC50 [2]: 250 nM

COCc1ccc(C(=O)Nc2nnc(-c3ccccc3)s2)cc1NC(=O)C1(N2CCN(C3CC3)CC2)CC1 [Example 44, 3-({[1-(4-cyclopropylpiperazin-1-yl)cyclopropyl]carbonyl}amino)-4-(methoxymethyl)-N-(5-phenyl-1,3,4-thiadiazol-2-yl)benzamide]
IC50 ([1]; Homo sapiens, HCT-116, 36 h): ≥ 50000 nM
IC50 [2]: 196 nM

NC(=O)c1ccc(C(=O)Nc2ccc(-c3ccccc3F)nc2)cc1NC(=O)C1(N2CCOCC2)CC1 [Example 75, N^4-[6-(2-fluorophenyl)pyridin-3-yl]-2-({[1-(morpholin-4-yl)cyclopropyl]carbonyl}amino)terephthalamide]
IC50 ([1]; Homo sapiens, HCT-116, 36 h): ≥ 50000 nM
IC50 [2]: 27 nM

O=C(CN1CC2CCC(C1)O2)Nc1cc(C(=O)Nc2ccc(-c3ccccc3F)nc2)ccc1OC(F)(F)F [Example 6, N-[6-(2-fluorophenyl)pyridin-3-yl]-3-[(8-oxa-3-azabicyclo[3.2.1]oct-3-ylacetyl)amino]-4-(trifluoromethoxy)benzamide]
IC50 [2]: 13 nM

CC(C(=O)Nc1cc(C(=O)Nc2nnc(-c3ccccc3)s2)ccc1OC(F)(F)F)N1CCN(C)CC1 (stereo not shown) [Example 58, 3-{[2-(4-methylpiperazin-1-yl)propanoyl]amino}-N-(5-phenyl-1,3,4-thiadiazol-2-yl)-4-(trifluoromethoxy)benzamide]
IC50 [2]: 270 nM

O=C(CN1CCOCC1)Nc1cc(NC(=O)c2ccc(-c3cccc(F)c3)nc2)ccc1OC(F)(F)F [Example 28, 6-(3-fluorophenyl)-N-{3-[(morpholin-4-ylacetyl)amino]-4-(trifluoromethoxy)phenyl}nicotinamide]
IC50 ([1]; Homo sapiens, HCT-116, 36 h): ≥ 50000 nM
IC50 [2]: 800 nM

CC(C(=O)Nc1cc(C(=O)Nc2ccc(-c3ccccc3F)nc2)ccc1OC(F)(F)F)N1CCOCC1 (stereo not shown) [Example 7, N-[6-(2-fluorophenyl)pyridin-3-yl]-3-{[2-(morpholin-4-yl)propanoyl]amino}-4-(trifluoromethoxy)benzamide]
IC50 ([1]; Homo sapiens, HCT-116, 36 h): ≥ 50000 nM

O=C(Nc1nnc(-c2ccccc2)s1)c1ccc(OC(F)F)c(NC(=O)C2(N3CCN(C4CC4)CC3)CC2)c1 [Example 38, 3-({[1-(4-cyclopropylpiperazin-1-yl)cyclopropyl]carbonyl}amino)-4-(difluoromethoxy)-N-(5-phenyl-1,3,4-thiadiazol-2-yl)benzamide]
IC50 ([1]; Homo sapiens, HCT-116, 36 h): ≥ 50000 nM
IC50 [2]: 200 nM

CC(C(=O)Nc1cc(C(=O)Nc2nnc(-c3ccccc3)s2)ccc1OC(F)(F)F)N1CCOCC1 (stereo not shown) [Example 241, 3-{[2-(morpholin-4-yl)propanoyl]amino}-N-(5-phenyl-1,3,4-thiadiazol-2-yl)-4-(trifluoromethoxy)benzamide]
IC50 ([1]; Homo sapiens, HCT-116, 36 h): ≥ 50000 nM

O=C(Nc1ccc(-c2ccccc2F)nc1)c1ccc(OC(F)(F)F)c(NC(=O)C2(N3CCOCC3)CC2)c1 [Example 68, N-[6-(2-fluorophenyl)pyridin-3-yl]-3-({[1-(morpholin-4-yl)cyclopropyl]carbonyl}amino)-4-(trifluoromethoxy)benzamide]
IC50 ([1]; Homo sapiens, HCT-116, 36 h): ≥ 50000 nM
IC50 [2]: 5.17 nM

O=C(Nc1nnc(-c2ccccc2)s1)c1ccc(OC(F)(F)F)c(NC(=O)C2(N3CCN(C4CC4)CC3)CC2)c1 [Example 51, 3-({[1-(4-cyclopropylpiperazin-1-yl)cyclopropyl]carbonyl}amino)-N-(5-phenyl-1,3,4-thiadiazol-2-yl)-4-(trifluoromethoxy)benzamide]
IC50 ([1]; Homo sapiens, HCT-116, 36 h): ≥ 50000 nM
IC50 [2]: 373 nM

O=C(Nc1nnc(-c2ccccc2)s1)c1ccc(OC(F)F)c(NC(=O)C2(N3CCOCC3)CC2)c1 [Example 37, 4-(difluoromethoxy)-3-({[1-(morpholin-4-yl)cyclopropyl]carbonyl}amino)-N-(5-phenyl-1,3,4-thiadiazol-2-yl)benzamide]
IC50 ([1]; Homo sapiens, HCT-116, 36 h): ≥ 50000 nM
IC50 [2]: 280 nM

COc1ccc(-c2ccc(C(=O)Nc3ccc(OC)c(NC(=O)CN4CCOCC4)c3)s2)cc1 [Example 35, N-{4-methoxy-3-[(morpholin-4-ylacetyl)amino]phenyl}-5-(4-methoxyphenyl)thiophene-2-carboxamide]
IC50 ([1]; Homo sapiens, HCT-116, 36 h): ≥ 50000 nM
IC50 [2]: 910 nM

O=C(Nc1ccc(-c2ccccc2F)nc1)c1ccc(Cl)c(NC(=O)C2(N3CCOCC3)CC2)c1 [Example 79, 4-chloro-N-[6-(2-fluorophenyl)pyridin-3-yl]-3-({[1-(morpholin-4-yl)cyclopropyl]carbonyl}amino)benzamide]
IC50 ([1]; Homo sapiens, HCT-116, 36 h): ≥ 50000 nM
IC50 [2]: 64 nM

N-[6-(2-fluorophenyl)pyridin-3-yl]-3-{[(2S)-2-(4-methylpiperazin-1-yl)propanoyl]amino}-4-(trifluoromethoxy)benzamide or N-[6-(2-fluorophenyl)pyridin-3-yl]-3-{[(2R)-2-(4-methylpiperazin-1-yl)propanoyl]amino}-4-(trifluoromethoxy)benzamide [Example 66]
IC50 [2]: 130 nM

O=C(CN1CCN(C2CC2)CC1)Nc1cc(C(=O)Nc2nnc(-c3ccccc3)s2)ccc1OC(F)(F)F [Example 53, 3-{[(4-cyclopropylpiperazin-1-yl)acetyl]amino}-N-(5-phenyl-1,3,4-thiadiazol-2-yl)-4-(trifluoromethoxy)benzamide]
IC50 ([1]; Homo sapiens, HCT-116, 36 h): ≥ 50000 nM
IC50 [2]: 820 nM

CN1CCN(C2(C(=O)Nc3cc(C(=O)Nc4nnc(-c5ccccc5)s4)ccc3CS(C)(=O)=O)CC2)CC1 [Example 49, 3-({[1-(4-methylpiperazin-1-yl)cyclopropyl]carbonyl}amino)-4-[(methylsulfonyl)methyl]-N-(5-phenyl-1,3,4-thiadiazol-2-yl)benzamide]
IC50 ([1]; Homo sapiens, HCT-116, 36 h): ≥ 50000 nM
IC50 [2]: 45 nM

O=C(CN1CCOCC1)Nc1cc(C(=O)Nc2ccc(-c3ccccc3)cn2)ccc1OC(F)(F)F [Example 131, 3-[(morpholin-4-ylacetyl)amino]-N-(5-phenylpyridin-2-yl)-4-(trifluoromethoxy)benzamide]
IC50 ([1]; Homo sapiens, HCT-116, 36 h): ≥ 50000 nM
IC50 [2]: 100 nM

O=C(Nc1ccc(-c2ccccc2F)nc1)c1ccc(OC2CC2)c(NC(=O)C2(N3CCN(C4CC4)CC3)CC2)c1 [Example 136, 4-(cyclopropyloxy)-3-({[1-(4-cyclopropylpiperazin-1-yl)cyclopropyl]carbonyl}amino)-N-[6-(2-fluorophenyl)pyridin-3-yl]benzamide]
IC50 ([1]; Homo sapiens, HCT-116, 36 h): ≥ 50000 nM
IC50 [2]: 75 nM

O=C(Nc1ccc(OC(F)(F)F)c(NC(=O)C2(N3CCOCC3)CC2)c1)c1ccc(-c2cc(F)cc(F)c2)nc1 [Example 60, 6-(3,5-difluorophenyl)-N-[3-({[1-(morpholin-4-yl)cyclopropyl]carbonyl}amino)-4-(trifluoromethoxy)phenyl]nicotinamide]
IC50 ([1]; Homo sapiens, HCT-116, 36 h): ≥ 50000 nM
IC50 [2]: 290 nM
